From US20080214457A1 (METROHEALTH SYSTEM, published 2008)

Biological target: R282H-SCN5A (human) (UniProt Q14524)
Experiment: cell-based or functional assay

| Substance | Peak Current Density (pA/pF) | whole-cell currents as percent of WT-SCN5A values |
| --- | --- | --- |
| H558R-SCN5A (from UniProt Q14524 1-2016) | -444 pA/pF | – |
| WT-SCN5A (from UniProt Q14524 1-2016) | -353 pA/pF | 58% |
